These results are taken from PubChem BioAssay AID651822 (The Scripps Research Institute Molecular Screening Center, 2012).

The entries are a selection whose mix differs from that of the whole data set. Activity calls are given as the source filed them. Rule as the data show it: active = inhibition above about 4.5%; inactive = the rest.

The test system of the assay is Methionine sulfoxide reductase A (Bos taurus). The experiment in a line: methionine sulfoxide reductase A inhibition – biochemical, absorbance, bovine, HTS, confirmation (AID 651822).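 Also: coupled to thioredoxin reductase with NADPH and selenocystamine and DMSO as substrate; 0% = vehicle only and 100% = full effect of reference inhibitor.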 To be noted: purified bovine MsrA, absorbance read-out; at 15.5 µM; hits give high values.
Take `CC(=O)Nc1ccc(Oc2c([N+](=O)[O-])cc([N+](=O)[O-])cc2[N+](=O)[O-])cc1`: the inhibition is active: 4.69%.

As for `Nc1ccc(CCCCOc2ccccc2)cc1`, the inhibition was inactive: 2.4%.

With `O=C(O)c1ccccc1[As](=O)(O)O`, the inhibition is active: 81.5%.

Usually inhibition stands for the change of the read-out against control, counted positive when it falls.
